Results from ChEMBL document CHEMBL1143565, “Pyrido[2,3-d]pyrimidin-7-ones as specific inhibitors of cyclin-dependent kinase 4” (J Med Chem, 2005).

Assays:
[1] = target: Cyclin-dependent kinase 2/cyclin A (Homo sapiens, UniProt P24941); test: Inhibition of [32P]ATP binding to Cyclin dependent kinase 2-cyclin A; format: protein-complex assay
Method in brief: (§1)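 Human recombinant Cdk–cyclin holoenzymes expressed in insect cells via baculovirus. Each reaction held 20 ng enzyme, 1 µg GST-retinoblastoma substrate and inhibitor dilutions in 20 mM Tris pH 7.4, 50 mM NaCl, 1 mM DTT, 10 mM MgCl2. Started with [32P]ATP (0.25 µCi), at 25 µM for Cdk4 or 12 µM for Cdk2/E, Cdk2/A and Cdc2/B. Ran 15 min at 25 °C. Stopped with TCA and precipitated ≥1 h at 4 °C.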

[2] = target: Cyclin-dependent kinase 2/cyclin E (Homo sapiens, UniProt P24941); test: Inhibition of [32P]ATP binding to Cyclin dependent kinase 2-cyclin E; format: protein-complex assay; method in brief: as §1

Cc1cc(=O)n(C2CCCC2)c2nc(Nc3ccc(N4CCNCC4)cc3)ncc12
IC50 [1]: > 5 µM
IC50 [2]: > 5 µM
